Reference: ChEMBL document CHEMBL1152554, “Synthesis and pharmacological evaluation of 6-naltrexamine analogs for alcohol cessation” (Bioorg Med Chem, 2009)

The chains behind the UniProt entries cited, without tags or fusion partners. Where a name states a change or a piece, a line headed by the entry shows the natural chain unless it says otherwise.
UniProt P41145: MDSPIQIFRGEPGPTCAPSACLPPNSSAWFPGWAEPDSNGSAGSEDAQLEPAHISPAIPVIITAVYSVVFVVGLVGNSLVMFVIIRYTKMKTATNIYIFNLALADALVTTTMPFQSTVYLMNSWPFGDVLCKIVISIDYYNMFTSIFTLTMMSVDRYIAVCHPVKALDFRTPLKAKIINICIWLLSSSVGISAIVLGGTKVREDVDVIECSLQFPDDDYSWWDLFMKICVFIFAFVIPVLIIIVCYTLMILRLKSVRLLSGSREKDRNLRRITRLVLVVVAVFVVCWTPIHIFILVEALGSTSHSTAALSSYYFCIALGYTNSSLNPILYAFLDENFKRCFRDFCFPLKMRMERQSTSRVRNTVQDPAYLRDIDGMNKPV
UniProt P41143, whole entry: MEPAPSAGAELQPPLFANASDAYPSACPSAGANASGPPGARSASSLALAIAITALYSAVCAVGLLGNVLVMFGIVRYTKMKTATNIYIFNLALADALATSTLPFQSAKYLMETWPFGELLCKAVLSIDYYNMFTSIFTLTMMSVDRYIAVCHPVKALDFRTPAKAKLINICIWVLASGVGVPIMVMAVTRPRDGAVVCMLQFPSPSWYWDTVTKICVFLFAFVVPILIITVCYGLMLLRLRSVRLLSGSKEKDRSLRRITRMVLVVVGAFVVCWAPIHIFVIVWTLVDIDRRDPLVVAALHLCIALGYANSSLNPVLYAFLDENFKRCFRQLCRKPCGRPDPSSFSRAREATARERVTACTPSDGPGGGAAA

Key:
Liver microsomes = conditions: human
[1] = target: Kappa-type opioid receptor (Homo sapiens, UniProt P41145)
[2] = target: Delta-type opioid receptor (Homo sapiens, UniProt P41143)

Structure (SMILES)	t1/2 (Liver microsomes) [h]	EC50 [1] [µM]	EC50 [2] [µM]
O=C(N[C@@H]1CC[C@@]2(O)[C@H]3Cc4ccc(O)c5c4[C@@]2(CCN3CC2CC2)[C@H]1O5)c1ccc(Cl)c(Cl)c1.O=C(O)C(=O)O	5.02		
O=C(N[C@@H]1CC[C@@]2(O)[C@H]3Cc4ccc(O)c5c4[C@@]2(CCN3CC2CC2)[C@H]1O5)c1ccc(Br)cc1.O=C(O)C(=O)O		> 10	0.066
O=C(N[C@@H]1CC[C@@]2(O)[C@H]3Cc4ccc(O)c5c4[C@@]2(CCN3CC2CC2)[C@H]1O5)c1ccc(Cl)cc1			> 10
